# Apparent affinities of Ab-14 variants for a coronavirus HR2 peptide

All variants were tested on one target, the spike HR2 peptide PDVDLGDISGINAS (SARS-CoV-2).

Parent: Ab-14, a human scFv built as VH, the linker GGGGSGGGGSGGGGS, VL. Only the CDRs of the heavy chain vary.
VH: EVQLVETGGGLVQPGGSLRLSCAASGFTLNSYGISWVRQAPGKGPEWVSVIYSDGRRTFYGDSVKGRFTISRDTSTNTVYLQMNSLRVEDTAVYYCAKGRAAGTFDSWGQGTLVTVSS
VL: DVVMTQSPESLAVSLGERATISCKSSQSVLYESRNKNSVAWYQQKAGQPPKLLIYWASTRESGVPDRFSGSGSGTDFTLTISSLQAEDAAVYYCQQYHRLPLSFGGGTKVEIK

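The starting antibody came from a phage panning campaign against this peptide. These sequences belong to a second round, designed from the earlier measurements on random variants of the parent. Their group label is 14H_En_HC (En: ensemble of fine-tuned language models; HC: hill climbing; a sequence that several methods proposed may carry one label only). Affinity was read by AlphaSeq, a pooled yeast mating assay with surface-displayed partners. Binding brings cells together so that they mate, and sequencing counts the barcode pairs among the diploids. The ratio of observed to expected reads was calibrated, replicate by replicate, on BCL2-family standards whose Kd was known from biolayer interferometry. The assay was run in six technical replicates.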

Variants are written as CDR1, CDR2 and CDR3 of the heavy chain (limits as in the source). Parent: GFTLNSYGIS, VIYSDGRRTFYGDSVK, GRAAGTFDS.
Scale: log10 of Kd in nM, estimated from mating counts; low values are strong binders.
A mean of the replicates is given; it leaves out those without a signal.
A pair that was not seen in that replicate is written "n.d."; this usually means weak binding, but a binder can also be missed.
Values of this round are not directly comparable with the first-round values of the same sequences.

{"CDR-H1": "GFDLNEYGIS", "CDR-H2": "VIYADGRRTFYTDSVK", "CDR-H3": "GANAGTFDQ", "log10 Kd, replicates": "-0.24 / -0.47 / -0.78 / -0.96 / -0.82 / -0.84", "mean, log10 nM": "-0.69", "control signals": "0/18"}
{"CDR-H1": "GFDLEEYGIS", "CDR-H2": "VIYADGMRTFYSDSVK", "CDR-H3": "GEAAGTFDV", "log10 Kd, replicates": "0.38 / -0.84 / 0.22 / 0.93 / -0.34 / 0.42", "mean, log10 nM": "0.13", "control signals": "0/18"}
{"CDR-H1": "GFDLNEYGIS", "CDR-H2": "VIYADGRRSFYADSVK", "CDR-H3": "GQIAGTFDS", "log10 Kd, replicates": "0.11 / 0.44 / -0.82 / -0.57 / -0.11 / -0.96", "mean, log10 nM": "-0.32", "control signals": "0/18"}
{"CDR-H1": "GFDLNEYGIS", "CDR-H2": "VIYADGQRTFYADDVK", "CDR-H3": "GEVAGTFDL", "log10 Kd, replicates": "-0.01 / -0.14 / 0.50 / 0.35 / 0.27 / 0.61", "mean, log10 nM": "0.26", "control signals": "1/18 (1.77)"}
{"CDR-H1": "GFDLEDYGIS", "CDR-H2": "VIYADGRRTAYADSVK", "CDR-H3": "GEEAGTFDL", "log10 Kd, replicates": "-0.10 / 0.03 / -0.47 / -0.39 / -0.16 / -0.36", "mean, log10 nM": "-0.24", "control signals": "0/18"}
{"CDR-H1": "GFDLEEYGIS", "CDR-H2": "VIYADGRRTFYSDSVK", "CDR-H3": "GEAAGTFDI", "log10 Kd, replicates": "-0.14 / -0.07 / -0.29 / -0.59 / -0.30 / -0.27", "mean, log10 nM": "-0.28", "control signals": "0/18"}
{"CDR-H1": "GFDLNEYGIS", "CDR-H2": "VIYADGRRTAYSDSVK", "CDR-H3": "GNAGGTFDS", "log10 Kd, replicates": "0.19 / 0.06 / 0.21 / 0.33 / 0.24 / 0.67", "mean, log10 nM": "0.28", "control signals": "1/18 (1.99)"}
{"CDR-H1": "GFDLNDYGIS", "CDR-H2": "VIYADGMRTQYIDSVK", "CDR-H3": "GENAGTFDL", "log10 Kd, replicates": "0.87 / 0.84 / 0.69 / 1.19 / 1.05 / 1.25", "mean, log10 nM": "0.98", "control signals": "0/18"}
{"CDR-H1": "GFDLEDYGIS", "CDR-H2": "VIYADGQRTFYADSVK", "CDR-H3": "GEIAGTFDL", "log10 Kd, replicates": "n.d. / -0.02 / 1.13 / n.d. / n.d. / n.d.", "mean, log10 nM": "0.55", "control signals": "0/18"}
{"CDR-H1": "GFDLNEYGIS", "CDR-H2": "VIYADGRRTFYADSVK", "CDR-H3": "GNQAGTFFS", "log10 Kd, replicates": "3.46 / 1.56 / 2.73 / 2.22 / 1.81 / 1.95", "mean, log10 nM": "2.29", "control signals": "0/18"}
{"CDR-H1": "GFDLDEYGIS", "CDR-H2": "VIYADGRRTFYQDSVK", "CDR-H3": "GNAAGTFDQ", "log10 Kd, replicates": "-0.52 / -0.22 / -0.12 / -0.37 / -0.46 / 0.11", "mean, log10 nM": "-0.26", "control signals": "0/18"}
{"CDR-H1": "GFDLNEYGIS", "CDR-H2": "VIYADGMRTFYVDSVK", "CDR-H3": "GQVAGTFNV", "log10 Kd, replicates": "-0.16 / -0.86 / -0.26 / -0.73 / -0.81 / -0.33", "mean, log10 nM": "-0.52", "control signals": "0/18"}
{"CDR-H1": "GFDLNEYGIS", "CDR-H2": "VIYADGRRTFYIDSVK", "CDR-H3": "GNVAGTFDS", "log10 Kd, replicates": "-0.62 / -1.06 / -0.60 / -0.40 / -0.83 / -0.53", "mean, log10 nM": "-0.67", "control signals": "0/18"}
{"CDR-H1": "GFDLNEYGIS", "CDR-H2": "VIYADGMRTFYIDSVK", "CDR-H3": "GENAGTFDV", "log10 Kd, replicates": "-0.03 / -0.57 / -0.95 / -0.59 / -0.42 / -0.44", "mean, log10 nM": "-0.50", "control signals": "0/18"}
{"CDR-H1": "GFNLNEYGIS", "CDR-H2": "VIYADGRRTAYADSVK", "CDR-H3": "GQQAGTFDM", "log10 Kd, replicates": "-0.36 / -0.49 / -0.46 / -0.65 / -0.49 / -0.58", "mean, log10 nM": "-0.51", "control signals": "0/18"}
{"CDR-H1": "GFDLDEYGIS", "CDR-H2": "VIYADGRRTFYADSVK", "CDR-H3": "GETAGTFTS", "log10 Kd, replicates": "-0.03 / -0.56 / -0.46 / -0.90 / -0.84 / -0.53", "mean, log10 nM": "-0.55", "control signals": "0/18"}
{"CDR-H1": "GFNLNEYGIS", "CDR-H2": "VIYADGRRTFYADSVK", "CDR-H3": "GEIAGTFDS", "log10 Kd, replicates": "-0.33 / -0.54 / -0.54 / -0.61 / -0.78 / -0.52", "mean, log10 nM": "-0.55", "control signals": "0/18"}
{"CDR-H1": "GFDLDEYGIS", "CDR-H2": "VIYADGRRTFYADSVK", "CDR-H3": "GEVAGTFDT", "log10 Kd, replicates": "-0.06 / -0.49 / -0.69 / -0.45 / -0.49 / -0.25", "mean, log10 nM": "-0.41", "control signals": "0/18"}
{"CDR-H1": "GFDLNEYGIS", "CDR-H2": "VIYADGRRTFYIDSVK", "CDR-H3": "GETAGTFDM", "log10 Kd, replicates": "0.54 / 0.38 / 0.28 / 0.24 / 0.78 / 0.20", "mean, log10 nM": "0.41", "control signals": "0/18"}

Top 2 of the variants detected in all replicates, tightest first:

CDR-H1	CDR-H2	CDR-H3	log10 Kd, replicates	mean, log10 nM	control signals
GFDLNEYGIS	VIYADGRRTFYTDSVK	GANAGTFDQ	-0.24 / -0.47 / -0.78 / -0.96 / -0.82 / -0.84	-0.69	0/18
GFDLNEYGIS	VIYADGRRTFYIDSVK	GNVAGTFDS	-0.62 / -1.06 / -0.60 / -0.40 / -0.83 / -0.53	-0.67	0/18

Three control strains display no target. For all heavy chain designs, 1% of the pairings with them gave a signal, with a median of 2.08 and one signal in twenty below 0.84, so weak values seen in few replicates may be background. Also given: how often the same scFv was detected with the empty control strains, with their mean in brackets.
The parent sequence was in this pool as ten entries: three were never detected, three once, and four in most replicates, with averages from 0.34 to 2.37.
In the paper, a design with two or fewer of six values counts as a poor binder.

From the AlphaSeq antibody data of Li et al. 2023 (doi:10.1038/s41467-023-39022-2), copy in the FLAb collection.